## Antibody variant affinities, Ab-14 heavy chain, assay 1

From the AlphaSeq antibody data of Engelhart et al. 2022 (doi:10.1038/s41597-022-01779-4), copy in the FLAb collection.

Target: peptide PDVDLGDISGINAS, taken from heptad repeat 2 (HR2) of SARS-CoV-2 spike.

Parent scFv Ab-14: VH joined to VL by a (GGGGS)3 linker. Changes lie in the heavy chain CDRs alone.
VH: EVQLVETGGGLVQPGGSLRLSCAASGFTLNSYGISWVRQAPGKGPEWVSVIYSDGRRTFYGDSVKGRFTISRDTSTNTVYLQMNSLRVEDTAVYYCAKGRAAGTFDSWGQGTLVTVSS
VL: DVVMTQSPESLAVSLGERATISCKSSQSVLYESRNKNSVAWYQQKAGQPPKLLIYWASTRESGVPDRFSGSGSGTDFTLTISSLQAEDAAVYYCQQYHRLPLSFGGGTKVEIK

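The library (AAYL49) carries one to three amino acid substitutions per variant, with no insertions or deletions. In AlphaSeq, yeast of one mating type display the scFv and yeast of the other type display the target. The frequency of each diploid, read from paired DNA barcodes, reflects how well the two displayed proteins bind. Read counts were normalised to the haploid input and turned into Kd by a linear fit to BCL2-family pairs of known affinity, for each replicate. Each pool was mated in three replicate cultures.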

Changes read parent residue, position, new residue, counted from the first residue of the VH shown.
The read-out is the apparent dissociation constant on a log10 scale (nM): the lower, the stronger.
Where no diploid with the target was found in that replicate, the entry reads "nd": below detection, most likely a poor binder, though not proof of it.
As a blank, each scFv also met three strains without target: over library AAYL49, 15% of these pairings were detected, typically at 4.06 and seldom below 2.83. The control count says in how many pairings with the empty strains this scFv gave a signal, with their mean in brackets.

| changes | log10 Kd (nM) by replicate | control signals |
|---|---|---|
| V64W/G99N/D106A | nd nd nd | 1/9 (3.28) |
| Y60N/R100K/F105E | 2.72 2.48 3.27 | 3/9 (3.96) |
| D54L/G61T/A102G | nd nd nd | 2/9 (3.97) |
| Y32T/Y52C/G99Y | nd 5.51 4.57 | 3/9 (4.41) |
| Y52G/G61V | nd nd nd | 0/9 |
| L29F/G61N/V64A | nd nd nd | 0/9 |
| S53Q/D54L/Y60N | nd nd nd | 0/9 |
| V50R/R56G/S63Q | nd nd nd | 1/9 (4.69) |
| Y60I/D62E/G99H | nd 2.31 2.29 | 0/9 |
| Y32S/R57E/A102C | nd nd nd | 1/9 (2.12) |
| I51K/G99T/T104Y | nd 2.97 nd | 1/9 (3.91) |
| Y52E/D54T/R56M | nd nd nd | 3/9 (4.13) |
| S35T/Y52P/Y60C | nd 4.88 nd | 3/9 (4.46) |
| I51L/D106Q/S107R | nd nd 3.75 | 4/9 (4.21) |
| I34V/R100D/F105L | nd nd nd | 1/9 (4.05) |
| V50K/S53H/D62M | nd nd nd | 0/9 |
| L29E/I34P/A101I | nd nd nd | 0/9 |
| V50F/Y60N/F105T | nd nd nd | 0/9 |
| V50L/Y52T/R57K | 4.14 nd 4.95 | 1/9 (3.86) |
| D54V/D62N/F105A | 5.31 3.41 4.15 | 1/9 (4.49) |
| I34T/S35D/S53G | 2.97 nd nd | 0/9 |
| S31V/R56E/A102H | 2.70 2.20 4.78 | 3/9 (4.24) |
| V50A/R56M/G99A | 3.87 nd 5.49 | 0/9 |
| V50W/Y52I/T58F | nd nd nd | 0/9 |
| G33K/S53L/A102F | nd 3.94 3.59 | 0/9 |
| I51F/Y52T/V64A | nd nd nd | 0/9 |
| G55E/G61A/D106W | nd nd nd | 1/9 (3.37) |
| D54G/G99P | nd nd nd | 0/9 |
| L29I/S63M/K65C | nd nd nd | 0/9 |
| G26S/A102W/F105E | 2.86 2.76 2.63 | 1/9 (4.34) |
| I34N/S35L/G55A | 2.90 nd nd | 1/9 (2.90) |
| F27A/R57Y/R100E | nd nd nd | 0/9 |
| D54Y/T58G/S107Q | nd nd 5.27 | 3/9 (3.40) |
| Y60E/R100I/S107F | nd 4.30 nd | 6/9 (4.50) |
| T28N/N30Y/Y52A | 2.43 4.87 3.35 | 0/9 |
| S53R/Y60V/A102F | nd 3.10 nd | 0/9 |
| T28M/Y52W/S63D | nd 3.56 4.84 | 5/9 (3.68) |
| Y32N/V64T/D106E | nd nd nd | 2/9 (3.86) |
| L29D/R56I/G61T | nd 4.18 nd | 1/9 (5.22) |
| G26F/D62C/S63H | nd 3.68 nd | 3/9 (4.35) |
| L29T/F59K/F105W | 5.70 nd 4.00 | 1/9 (4.38) |
| T28S/N30L/S53A | -0.18 0.15 0.11 | 0/9 |
| L29M/I34F/D62H | nd nd nd | 0/9 |
| F27S/I34R/V50E | 3.52 nd nd | 1/9 (4.42) |
| L29N/Y32T/S53C | nd nd nd | 1/9 (3.32) |
| G26M/L29H/R56A | nd nd nd | 2/9 (4.07) |
| G26N/Y52L/V64N | nd 3.44 nd | 1/9 (3.47) |
| F27D/T58D/D106G | nd nd nd | 0/9 |
| T28W/I34V/D62P | nd nd nd | 2/9 (3.31) |
| Y32A/T58S/G99A | nd nd 2.25 | 0/9 |
| G26V/R57V/Y60A | nd nd 3.57 | 1/9 (3.62) |
| Y52R/K65V/G99C | nd nd nd | 4/9 (4.14) |

The closing 9 entries, repeated:

changes	log10 Kd (nM) by replicate	control signals
F27S/I34R/V50E	3.52 nd nd	1/9 (4.42)
L29N/Y32T/S53C	nd nd nd	1/9 (3.32)
G26M/L29H/R56A	nd nd nd	2/9 (4.07)
G26N/Y52L/V64N	nd 3.44 nd	1/9 (3.47)
F27D/T58D/D106G	nd nd nd	0/9
T28W/I34V/D62P	nd nd nd	2/9 (3.31)
Y32A/T58S/G99A	nd nd 2.25	0/9
G26V/R57V/Y60A	nd nd 3.57	1/9 (3.62)
Y52R/K65V/G99C	nd nd nd	4/9 (4.14)

For reference, the parent read 0.65 as the reference entry and 4.11 (one replicate of three) as a member of this library.